Results published in publication PMC8000185 (International Journal of Molecular Sciences, 2021).

Sequences of proteins named here, by UniProt entry; tags and fusion partners are left off.
UniProt P19634, whole entry: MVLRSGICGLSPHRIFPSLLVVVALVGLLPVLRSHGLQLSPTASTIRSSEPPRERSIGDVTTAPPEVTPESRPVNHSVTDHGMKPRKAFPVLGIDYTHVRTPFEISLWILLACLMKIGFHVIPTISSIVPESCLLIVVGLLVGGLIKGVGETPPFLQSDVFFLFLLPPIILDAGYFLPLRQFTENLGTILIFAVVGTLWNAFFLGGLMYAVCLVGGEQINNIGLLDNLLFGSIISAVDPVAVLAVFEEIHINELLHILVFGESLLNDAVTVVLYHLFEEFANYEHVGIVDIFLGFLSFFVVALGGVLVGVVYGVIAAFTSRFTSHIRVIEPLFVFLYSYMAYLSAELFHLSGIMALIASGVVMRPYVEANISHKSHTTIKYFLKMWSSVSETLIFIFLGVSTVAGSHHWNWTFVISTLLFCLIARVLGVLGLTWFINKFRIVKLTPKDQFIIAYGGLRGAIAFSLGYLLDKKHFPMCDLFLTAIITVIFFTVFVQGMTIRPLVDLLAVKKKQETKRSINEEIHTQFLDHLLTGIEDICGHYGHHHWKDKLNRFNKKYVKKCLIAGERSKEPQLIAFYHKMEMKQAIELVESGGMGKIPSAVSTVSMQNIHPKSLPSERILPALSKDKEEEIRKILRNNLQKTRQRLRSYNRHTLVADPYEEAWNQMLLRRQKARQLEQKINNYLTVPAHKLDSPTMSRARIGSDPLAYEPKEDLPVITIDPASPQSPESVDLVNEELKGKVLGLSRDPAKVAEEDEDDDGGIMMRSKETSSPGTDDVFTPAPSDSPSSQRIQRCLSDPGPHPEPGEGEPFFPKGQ

Molecular target: T1, NHE1 (Homo sapiens, UniProt P19634)
T1 construct: MDA-MB-231 cells were seeded into Greiner CELLSTAR black 96-well plates; endogenous in cells; host or cells: MDA-MB-231
Test: Plate-based NHE1 inhibition assay (BCECF pHi recovery, 96-well plate reader)
Type: cell-based

N=C(N)NC(=O)c1nc(-c2cc3ccccc3o2)c(N)nc1N [compound 4]
inhibition at 1 µM (MDA-MB-231, read-out: NHE1 Inhibition (%) 1 μM): 13% | inhibition at 10 µM (MDA-MB-231, read-out: NHE1 Inhibition (%) 10 μM): 96%
